In US20140045856A1, “4-Methyl-2,3,5,9,9b-pentaaza-cyclopenta[a]naphthalenes” (BOEHRINGER INGELHEIM INTERNATIONAL GMBH, priority 2012, published 2014):
pIC50: −log10 of the molar value. Read-outs that look alike come from different tables or passages of the source.

Protein sequences, listed by entry. Tags and fused reporters are not part of them.
UniProt Q9Y233, whole entry, species assumed: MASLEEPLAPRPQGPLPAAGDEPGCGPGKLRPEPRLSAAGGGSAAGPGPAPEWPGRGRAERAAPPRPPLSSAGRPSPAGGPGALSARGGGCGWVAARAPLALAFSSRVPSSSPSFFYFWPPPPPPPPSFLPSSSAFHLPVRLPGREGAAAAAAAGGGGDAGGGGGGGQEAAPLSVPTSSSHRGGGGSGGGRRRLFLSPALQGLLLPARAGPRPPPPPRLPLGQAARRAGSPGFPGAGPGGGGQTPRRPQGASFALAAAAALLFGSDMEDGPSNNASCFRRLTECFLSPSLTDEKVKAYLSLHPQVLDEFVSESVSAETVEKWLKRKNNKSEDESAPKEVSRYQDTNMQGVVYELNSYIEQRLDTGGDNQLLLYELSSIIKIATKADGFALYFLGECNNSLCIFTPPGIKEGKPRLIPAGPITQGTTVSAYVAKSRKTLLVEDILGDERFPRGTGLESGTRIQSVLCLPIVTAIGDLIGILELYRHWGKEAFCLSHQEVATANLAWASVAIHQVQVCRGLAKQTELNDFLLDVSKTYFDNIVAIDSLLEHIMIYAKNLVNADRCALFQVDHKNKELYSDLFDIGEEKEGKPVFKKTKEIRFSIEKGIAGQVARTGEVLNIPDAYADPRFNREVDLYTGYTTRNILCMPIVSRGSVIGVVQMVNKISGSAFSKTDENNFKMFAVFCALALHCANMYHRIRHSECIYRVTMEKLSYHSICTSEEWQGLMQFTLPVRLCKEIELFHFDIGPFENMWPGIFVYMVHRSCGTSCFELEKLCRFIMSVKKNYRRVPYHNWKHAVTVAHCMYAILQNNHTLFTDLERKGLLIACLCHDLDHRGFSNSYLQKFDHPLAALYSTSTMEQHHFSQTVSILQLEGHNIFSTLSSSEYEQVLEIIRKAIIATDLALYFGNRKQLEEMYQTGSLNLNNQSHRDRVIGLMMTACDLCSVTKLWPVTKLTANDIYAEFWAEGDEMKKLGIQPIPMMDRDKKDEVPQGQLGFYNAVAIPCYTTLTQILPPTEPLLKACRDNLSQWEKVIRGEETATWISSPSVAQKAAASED
UniProt O00408, whole entry, species assumed: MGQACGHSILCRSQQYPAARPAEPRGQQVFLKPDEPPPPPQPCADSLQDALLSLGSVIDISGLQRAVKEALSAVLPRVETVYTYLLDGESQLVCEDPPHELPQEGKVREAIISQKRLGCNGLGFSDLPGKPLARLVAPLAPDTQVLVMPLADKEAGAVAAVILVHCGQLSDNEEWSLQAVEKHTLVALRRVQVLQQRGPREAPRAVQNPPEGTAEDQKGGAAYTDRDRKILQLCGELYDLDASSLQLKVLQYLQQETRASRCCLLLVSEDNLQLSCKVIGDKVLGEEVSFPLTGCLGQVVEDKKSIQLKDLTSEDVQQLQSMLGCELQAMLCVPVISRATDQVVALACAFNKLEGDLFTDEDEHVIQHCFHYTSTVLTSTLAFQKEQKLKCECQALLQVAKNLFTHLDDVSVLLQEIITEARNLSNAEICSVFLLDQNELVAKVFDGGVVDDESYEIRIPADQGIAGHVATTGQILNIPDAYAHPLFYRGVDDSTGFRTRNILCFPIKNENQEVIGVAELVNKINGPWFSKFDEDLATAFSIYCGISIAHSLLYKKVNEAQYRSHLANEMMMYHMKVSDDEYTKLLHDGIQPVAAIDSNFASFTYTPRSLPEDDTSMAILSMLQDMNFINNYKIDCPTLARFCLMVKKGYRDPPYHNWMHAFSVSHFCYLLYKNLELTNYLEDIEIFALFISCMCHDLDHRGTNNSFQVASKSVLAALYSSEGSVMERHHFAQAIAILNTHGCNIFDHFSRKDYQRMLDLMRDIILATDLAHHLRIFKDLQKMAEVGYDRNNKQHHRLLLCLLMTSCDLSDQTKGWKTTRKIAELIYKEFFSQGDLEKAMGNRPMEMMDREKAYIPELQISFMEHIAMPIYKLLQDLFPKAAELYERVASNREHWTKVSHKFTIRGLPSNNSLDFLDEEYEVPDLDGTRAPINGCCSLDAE

Experiments:
Type in all cases: biochemical
[1] = biological target: PDE10 (Homo sapiens, UniProt Q9Y233); test: PDE10 assay with fluorescent substrate (IMAP, fluorescence polarization)
[2] = biological target: T1, PDE2A (Homo sapiens, UniProt O00408); test: PDE 2A assay with fluorescent substrate (IMAP, fluorescence polarization); conditions: read-out: PDE2 IC50
[3] = biological target: T1, PDE2A; test: Radioactive PDE2 assay ([3H]cAMP SPA)
[4] = biological target: PDE 10A (Homo sapiens, UniProt Q9Y233); test: Radioactive PDE10 assay ([3H]cAMP SPA)
[5] = IMAP fluorescent, read-out: PDE10 IC50

SMILES	pIC50 [1, 5]	pIC50 [2]	also measured
Cc1ccc(OC2COCC2O)cc1-c1nnc2c(C)nc3ccc(C4CC4)nc3n12 (racemic) [Example 57]	7.35	8.22	
Cc1nc2ccc(C3CC3)nc2n2c(-c3cc(C4(O)CCOCC4O)ccc3F)nnc12 (racemic) [Example 105]		7.64	
Cc1nc2ccc(C3CC3)nc2n2c(-c3cc(OC4COCC4O)ccc3Cl)nnc12 (single isomer, unassigned) [Example 56a]		8.10	
Cc1nc2ccc(C3CC3)nc2n2c(-c3cc(OC4COCC4O)ccc3Cl)nnc12 (single isomer, unassigned) [Example 56b]		9.00	
Cc1ccc(OC2COCC2O)cc1-c1nnc2c(C)nc3ccc(C4CC4)nc3n12 (single isomer, unassigned) [Example 57a]	6.78	7.92	
Cc1ccc(OC2COCC2O)cc1-c1nnc2c(C)nc3ccc(C4CC4)nc3n12 (single isomer, unassigned) [Example 57b]	7.04	8.52	
Cc1nc2ccc(C3CC3)nc2n2c(-c3cc(OC4COCC4O)ccc3Cl)nnc12 (single isomer, unassigned) [Example 58a]		7.27	
Cc1nc2ccc(C3CC3)nc2n2c(-c3cc(C4(O)CCOCC4O)ccc3F)nnc12 (single isomer, unassigned) [Example 105a]		6.98	
Cc1nc2ccc(C3CC3)nc2n2c(-c3cc(C4(O)CCOCC4O)ccc3F)nnc12 (single isomer, unassigned) [Example 105b]		7.42	
Cc1nc2cccnc2n2c(-c3cc(O)ccc3Cl)nnc12 [Example 1]		7.39	pIC50 [3]: 7.80
Cc1nc2ccc(C3CC3)nc2n2c(-c3cc(O)ccc3F)nnc12 [Example 5]		8.52	
Cc1ccc(O)cc1-c1nnc2c(C)nc3cccnc3n12 [Example 10]	6.60	6.64	
Cc1nc2cccnc2n2c(-c3cc(OCCC(C)(C)O)ccc3Cl)nnc12 [Example 14]			pIC50 [3]: 6.69; pIC50 [4]: 5.45
Cc1nc2cccnc2n2c(-c3cc(OCC(C)O)ccc3Cl)nnc12 (stereo not shown) [Example 16]	5.06	7.01	pIC50 [3]: 7.24; pIC50 [4]: 5.73
Cc1nc2cccnc2n2c(-c3cc(OC[C@@H](C)O)ccc3Cl)nnc12 [Example 17]	4.99	6.79	pIC50 [3]: 7.01; pIC50 [4]: 5.24
Cc1nc2cccnc2n2c(-c3cc(OC[C@H](C)O)ccc3Cl)nnc12 [Example 18]	5.07	7.05	pIC50 [3]: 7.15; pIC50 [4]: 5.52
Cc1nc2cccnc2n2c(-c3cc(OC4CCOCC4)ccc3Cl)nnc12 [Example 20]		7.11	pIC50 [3]: 7.55
Cc1nc2cccnc2n2c(-c3cc(OC4CCOC4)ccc3Cl)nnc12 (stereo not shown) [Example 22]	5.03		
Cc1nc2cccnc2n2c(-c3cc(O[C@@H]4CCOC4)ccc3Cl)nnc12 [Example 23]	5.04		pIC50 [4]: 5.29
Cc1nc2cccnc2n2c(-c3cc(O[C@H]4CCOC4)ccc3Cl)nnc12 [Example 24]			pIC50 [4]: 5.17
Cc1ccc2nc(C)c3nnc(-c4cc(OCCCO)ccc4Cl)n3c2n1 [Example 27]		7.74	pIC50 [3]: 8.40
Cc1ccc2nc(C)c3nnc(-c4cc(OCCO)ccc4Cl)n3c2n1 [Example 28]	6.52	7.70	pIC50 [3]: 8.05
Cc1ccc2nc(C)c3nnc(-c4cc(OC5CCOCC5)ccc4Cl)n3c2n1 [Example 32]	5.17	7.59	pIC50 [3]: 8.52; pIC50 [4]: 5.75

SMILES	pIC50 [1, 5]	pIC50 [2]	also measured
Cc1nc2ccc(C3CC3)nc2n2c(-c3cc(OC4CCOCC4)ccc3Cl)nnc12 [Example 32a]		8.22	
Cc1ccc2nc(C)c3nnc(-c4cc(OCCCOC(F)(F)F)ccc4Cl)n3c2n1 [Example 33]	5.47		pIC50 [4]: 5.60
Cc1ccc2nc(C)c3nnc(-c4cc(OC[C@H](C)O)ccc4Cl)n3c2n1 [Example 34]	5.67		pIC50 [4]: 5.72
Cc1ccc2nc(C)c3nnc(-c4cc(OC[C@@H](C)O)ccc4Cl)n3c2n1 [Example 35]	5.83		pIC50 [4]: 5.89
Cc1nc2cccnc2n2c(-c3cc(OC4CCC(O)C4)ccc3Cl)nnc12 (stereo not shown) [Example 40]	5.06		pIC50 [4]: 5.46
Cc1ccc2nc(C)c3nnc(-c4cc(O[C@H]5CCOC5)ccc4Cl)n3c2n1 [Example 43]	5.52	7.24	
Cc1nc2ccc(C3CC3)nc2n2c(-c3cc(OCC(C)(C)O)ccc3Cl)nnc12 [Example 45]			pIC50 ([1]; PDE10 IC50, IMAP fluorescent): 5.83
Cc1ccc2nc(C)c3nnc(-c4cc(OCC(C)(C)O)ccc4Cl)n3c2n1 [Example 46]	5.99		
Cc1ccc(OCC(C)(C)O)cc1-c1nnc2c(C)nc3ccc(C4CC4)nc3n12 [Example 48]	5.82		
Cc1ccc(OCC(C)(C)O)cc1-c1nnc2c(C)nc3ccc(C(C)C)nc3n12 [Example 51]	5.67		
CCC(O)c1ccc(Cl)c(-c2nnc3c(C)nc4ccc(C)nc4n23)c1 (stereo not shown) [Example 62]	5.89		
Cc1nc2cccnc2n2c(-c3cc(CCC(C)(C)O)ccc3F)nnc12 [Example 65]		6.67	
Cc1ccc2nc(C)c3nnc(-c4cc(C(C)(C)O)ccc4Cl)n3c2n1 [Example 71]	5.68		
Cc1nc2ccc(C3(C)CC3)nc2n2c(-c3cc(C(C)(C)O)ccc3F)nnc12 [Example 72]	5.54		
Cc1nc2ccc(C(C)C)nc2n2c(-c3cc(C(C)(C)O)ccc3Cl)nnc12 [Example 77]		8.40	
Cc1ccc(C(C)(C)O)cc1-c1nnc2c(C)nc3cc(C(C)C)cnc3n12 [Example 79]	6.52		
Cc1nc2ccc(C3CC3)nc2n2c(-c3cc(C4(O)CCC4)ccc3Cl)nnc12 [Example 88]	6.52		
Cc1ccc2nc(C)c3nnc(-c4cc(C5(O)CCC5)ccc4Cl)n3c2n1 [Example 89]		7.74	
Cc1nc2ccc(C(F)(F)F)nc2n2c(-c3cc(C4(O)CCOCC4)ccc3Cl)nnc12 [Example 96]	5.23		
Cc1nc2ccc(C(F)(F)F)nc2n2c(-c3cc(C4(O)CCOC4)ccc3F)nnc12 (stereo not shown) [Example 96c]		6.23	
Cc1nc2ccc(C3CC3)nc2n2c(-c3cc(C(C)(C)CO)ccc3F)nnc12 [Example 101]		7.33	
Cc1nc2ccc(C(F)(F)F)nc2n2c(-c3cc(C(C)(C)O)ccc3Cl)nnc12 [Example 103b]		7.00	
